Our source for the IC50 values is ChEMBL document CHEMBL1156789, “Design and synthesis of 5,5'-disubstituted aminohydantoins as potent and selective human beta-secretase (BACE1) inhibitors” (J Med Chem, 2010).

In the experiment the target is T1, Beta-secretase 2 (Homo sapiens, UniProt Q9Y5Z0).
T1 sequence (Q9Y5Z0 whole entry): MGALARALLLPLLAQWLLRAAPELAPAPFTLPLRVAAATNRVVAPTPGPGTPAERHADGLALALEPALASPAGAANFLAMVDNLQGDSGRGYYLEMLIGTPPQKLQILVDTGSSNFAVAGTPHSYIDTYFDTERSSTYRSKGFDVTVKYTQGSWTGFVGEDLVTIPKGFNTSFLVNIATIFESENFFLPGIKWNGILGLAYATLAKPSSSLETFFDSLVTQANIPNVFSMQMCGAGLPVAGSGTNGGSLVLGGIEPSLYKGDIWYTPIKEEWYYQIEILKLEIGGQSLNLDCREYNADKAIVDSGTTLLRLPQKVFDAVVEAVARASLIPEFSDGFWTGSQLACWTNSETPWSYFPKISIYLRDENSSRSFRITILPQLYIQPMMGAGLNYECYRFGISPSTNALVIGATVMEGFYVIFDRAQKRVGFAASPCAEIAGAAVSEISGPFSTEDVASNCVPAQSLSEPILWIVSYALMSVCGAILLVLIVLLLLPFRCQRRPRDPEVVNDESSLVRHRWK
Nature of the experiment: Inhibition of human BACE2 by FRET based peptide cleavage assay.

Each structure is given as a SMILES string.

`COc1ccc(C2(c3cccc(-c4cccnc4)c3)N=C(N)N(C)C2=O)cc1C` (configuration not stated) showed a 50% inhibitory concentration (IC50) of 0.78 µM.

In turn, `COc1ccc(C2(c3cccc(-c4cccnc4)c3)N=C(N)N(C)C2=O)cc1OC` (configuration not stated) registered an IC50 of 4.17 µM.

For orientation: IC50 means the concentration at which inhibition is half-maximal.
